Measurements: patent US20230079819A1, “COMPOUNDS AND USES THEREOF” (Foghorn Therapeutics Inc., priority 2019, published 2023)
Read-outs that look alike come from different tables or passages of the source. Values belong to the compound of their own block, whether it stands above or below them.

The chains behind the UniProt entries cited, without tags or fusion partners.
UniProt P51531, whole entry: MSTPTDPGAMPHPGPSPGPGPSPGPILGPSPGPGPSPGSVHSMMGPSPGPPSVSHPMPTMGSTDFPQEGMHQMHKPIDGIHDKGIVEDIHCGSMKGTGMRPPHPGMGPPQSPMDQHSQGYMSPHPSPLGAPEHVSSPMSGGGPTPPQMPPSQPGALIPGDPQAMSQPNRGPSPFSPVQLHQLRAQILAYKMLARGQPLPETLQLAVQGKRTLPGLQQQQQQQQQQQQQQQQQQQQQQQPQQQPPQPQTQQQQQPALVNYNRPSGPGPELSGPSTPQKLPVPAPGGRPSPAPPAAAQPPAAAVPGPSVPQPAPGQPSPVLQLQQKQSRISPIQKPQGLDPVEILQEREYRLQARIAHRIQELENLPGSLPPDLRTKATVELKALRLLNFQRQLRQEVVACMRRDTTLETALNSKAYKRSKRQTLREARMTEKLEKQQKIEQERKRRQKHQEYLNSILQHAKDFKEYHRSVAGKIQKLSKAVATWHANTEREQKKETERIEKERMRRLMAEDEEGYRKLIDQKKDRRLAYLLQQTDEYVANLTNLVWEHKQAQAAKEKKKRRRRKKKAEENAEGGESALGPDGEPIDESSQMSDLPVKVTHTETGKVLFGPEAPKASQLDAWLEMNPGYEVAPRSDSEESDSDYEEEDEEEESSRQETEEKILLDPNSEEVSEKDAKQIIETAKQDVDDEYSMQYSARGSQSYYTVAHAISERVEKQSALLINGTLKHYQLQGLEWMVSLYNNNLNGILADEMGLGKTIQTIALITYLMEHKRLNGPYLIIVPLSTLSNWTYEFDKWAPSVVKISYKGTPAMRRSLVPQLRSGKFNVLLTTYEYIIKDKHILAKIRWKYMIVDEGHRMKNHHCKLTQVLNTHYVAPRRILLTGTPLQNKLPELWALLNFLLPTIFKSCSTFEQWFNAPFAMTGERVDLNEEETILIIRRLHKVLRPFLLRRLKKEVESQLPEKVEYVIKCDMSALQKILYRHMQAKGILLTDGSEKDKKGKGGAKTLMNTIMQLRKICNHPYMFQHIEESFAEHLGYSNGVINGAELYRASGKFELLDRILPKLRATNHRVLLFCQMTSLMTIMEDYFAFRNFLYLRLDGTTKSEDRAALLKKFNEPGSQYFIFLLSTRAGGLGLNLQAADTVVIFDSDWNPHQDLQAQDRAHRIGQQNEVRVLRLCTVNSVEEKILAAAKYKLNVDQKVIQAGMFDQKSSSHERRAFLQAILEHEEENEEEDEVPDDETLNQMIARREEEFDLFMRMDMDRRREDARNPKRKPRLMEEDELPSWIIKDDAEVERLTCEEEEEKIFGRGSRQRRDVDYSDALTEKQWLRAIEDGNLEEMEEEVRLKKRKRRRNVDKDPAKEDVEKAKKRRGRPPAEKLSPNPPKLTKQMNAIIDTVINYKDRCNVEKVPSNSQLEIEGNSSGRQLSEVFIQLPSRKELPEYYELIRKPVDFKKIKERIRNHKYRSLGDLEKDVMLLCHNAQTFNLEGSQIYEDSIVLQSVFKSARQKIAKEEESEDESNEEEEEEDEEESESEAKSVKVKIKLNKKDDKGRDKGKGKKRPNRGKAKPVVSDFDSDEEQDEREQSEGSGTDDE
UniProt P51532, whole entry: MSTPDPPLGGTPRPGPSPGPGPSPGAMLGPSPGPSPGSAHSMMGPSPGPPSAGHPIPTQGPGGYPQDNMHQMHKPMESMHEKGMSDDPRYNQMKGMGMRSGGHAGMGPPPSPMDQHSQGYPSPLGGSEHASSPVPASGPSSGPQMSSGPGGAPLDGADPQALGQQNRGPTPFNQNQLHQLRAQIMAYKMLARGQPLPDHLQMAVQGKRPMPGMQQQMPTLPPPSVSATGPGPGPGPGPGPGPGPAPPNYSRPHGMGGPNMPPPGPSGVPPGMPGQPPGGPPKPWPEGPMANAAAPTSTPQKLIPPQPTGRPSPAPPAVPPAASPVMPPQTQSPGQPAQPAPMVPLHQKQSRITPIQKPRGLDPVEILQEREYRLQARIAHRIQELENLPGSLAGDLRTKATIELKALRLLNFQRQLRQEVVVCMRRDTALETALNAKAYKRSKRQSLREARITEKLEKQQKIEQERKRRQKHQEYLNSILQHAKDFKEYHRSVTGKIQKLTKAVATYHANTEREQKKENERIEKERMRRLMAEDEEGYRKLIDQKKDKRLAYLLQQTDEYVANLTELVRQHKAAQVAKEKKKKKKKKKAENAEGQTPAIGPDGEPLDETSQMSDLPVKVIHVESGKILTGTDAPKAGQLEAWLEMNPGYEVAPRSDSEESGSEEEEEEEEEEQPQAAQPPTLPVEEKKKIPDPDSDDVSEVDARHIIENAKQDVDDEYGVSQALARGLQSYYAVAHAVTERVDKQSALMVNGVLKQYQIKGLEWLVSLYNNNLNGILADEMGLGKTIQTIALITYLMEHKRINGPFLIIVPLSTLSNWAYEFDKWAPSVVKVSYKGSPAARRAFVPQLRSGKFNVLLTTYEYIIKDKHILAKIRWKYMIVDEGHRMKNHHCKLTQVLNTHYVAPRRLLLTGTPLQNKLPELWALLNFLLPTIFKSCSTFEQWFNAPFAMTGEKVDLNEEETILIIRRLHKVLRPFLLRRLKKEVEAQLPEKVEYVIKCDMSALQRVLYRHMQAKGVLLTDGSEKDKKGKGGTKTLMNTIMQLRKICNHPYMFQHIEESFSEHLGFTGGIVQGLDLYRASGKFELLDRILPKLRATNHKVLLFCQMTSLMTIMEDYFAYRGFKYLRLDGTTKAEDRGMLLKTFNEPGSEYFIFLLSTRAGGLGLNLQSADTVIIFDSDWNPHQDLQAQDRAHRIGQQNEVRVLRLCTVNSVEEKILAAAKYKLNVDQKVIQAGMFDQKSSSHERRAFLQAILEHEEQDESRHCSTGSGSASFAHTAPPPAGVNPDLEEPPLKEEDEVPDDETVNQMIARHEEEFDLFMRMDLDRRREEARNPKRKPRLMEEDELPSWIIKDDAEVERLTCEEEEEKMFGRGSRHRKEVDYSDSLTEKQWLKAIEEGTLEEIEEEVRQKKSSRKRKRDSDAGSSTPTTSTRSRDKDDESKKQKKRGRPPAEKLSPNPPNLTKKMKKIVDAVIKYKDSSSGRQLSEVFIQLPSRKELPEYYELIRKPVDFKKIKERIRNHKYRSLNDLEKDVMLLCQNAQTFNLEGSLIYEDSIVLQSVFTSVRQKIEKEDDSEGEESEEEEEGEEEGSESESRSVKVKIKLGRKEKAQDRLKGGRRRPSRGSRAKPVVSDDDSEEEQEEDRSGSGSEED

Tests used:
BRM = BRM (Homo sapiens, UniProt P51531); experiment: ATPase catalytic activity of BRM, ADP-Glo in vitro biochemical assay
BRG-1 = BRG-1 (Homo sapiens, UniProt P51532); experiment: ATPase catalytic activity of BRG-1, ADP-Glo in vitro biochemical assay
[1] = read-out: BRM IP50, 30 nM BRM, 400 μM ATP
[2] = read-out: BRG1 IP50, 30 nM BRG-1, 400 μM ATP
[3] = read-out: BRM IP50 (μM)*, 30 nM BRM, 400 μM ATP
[4] = read-out: BRG1 IP50 (μM)*, 30 nM BRG-1, 400 μM ATP

Compound: C[C@@H]1CN(c2cccc(-c3csc(NC(=O)[C@H](C)NC(=O)c4ccn(C5(C)COC5)n4)n3)n2)C[C@H](C)O1
IC50 (BRM; [1]): > 0.1 µM
IC50 (BRG-1; [2]): > 0.1 µM

Compound: COC[C@H](NC(=O)c1ccn(S(C)(=O)=O)c1)C(=O)Nc1nc(-c2cc(Cl)cc(C3C[C@@H](C)O[C@@H](C)C3)n2)cs1 (stereo partly shown)
IC50 (BRM; [1]): < 0.01 µM
IC50 (BRG-1; [2]): < 0.01 µM

Compound: CC(C)(O)COc1cccc(-c2csc(NC(=O)CNC(=O)c3ccn(S(C)(=O)=O)c3)n2)c1
IC50 (BRM; [3]): > 0.01 µM
IC50 (BRG-1; [4]): > 0.01 µM

Compound: CN1CCc2cc(-c3csc(NC(=O)CNC(=O)c4ccn(S(C)(=O)=O)c4)n3)cc(F)c21
IC50 (BRM; [1]): > 0.01 µM
IC50 (BRG-1; [2]): > 0.01 µM

Compound: COC[C@H](NC(=O)c1ccn(S(C)(=O)=O)c1)C(=O)Nc1nc(-c2cncc(N3C[C@@H](C)O[C@@H](C)C3)c2)cs1
IC50 (BRM; [1]): > 0.01 µM
IC50 (BRG-1; [2]): > 0.01 µM

Compound: CS(=O)(=O)n1ccc(C(=O)NCC(=O)Nc2nc(-c3cc(F)c4c(c3F)OCC4)cs2)c1
IC50 (BRM; [1]): > 0.01 µM
IC50 (BRG-1; [2]): > 0.01 µM

Compound: CS(=O)(=O)n1ccc(C(=O)NCC(=O)Nc2nc(-c3cccc(OCCC(F)(F)F)c3)cs2)c1
IC50 (BRM; [3]): > 0.01 µM
IC50 (BRG-1; [4]): > 0.01 µM

Compound: COC[C@H](NC(=O)c1ccn(S(C)(=O)=O)c1)C(=O)Nc1nc(-c2cccc([C@@H]3CC3(F)F)n2)cs1
IC50 (BRM; [1]): > 0.1 µM
IC50 (BRG-1; [2]): > 0.1 µM

Compound: CS(=O)(=O)n1ccc(C(=O)NCC(=O)Nc2nc(-c3cccc(N4CC(CN5CCOCC5)C4)c3)cs2)c1
IC50 (BRM; [3]): > 0.1 µM
IC50 (BRG-1; [4]): > 0.1 µM

Compound: CS(=O)(=O)n1ccc(C(=O)NCC(=O)Nc2nc(-c3cccc(C45CCOCC4C5)c3)cs2)c1 (stereo not shown) [Compound 743]
IC50 (BRM; [1]): > 0.01 µM
IC50 (BRG-1; [2]): > 0.01 µM

Compound: CS(=O)(=O)n1ccc(C(=O)NCC(=O)Nc2nc(-c3cccc(OC4CC4)c3F)cs2)c1
IC50 (BRM; [1]): > 0.01 µM
IC50 (BRG-1; [2]): > 0.01 µM

Compound: COC[C@H](NC(=O)c1ccn(S(C)(=O)=O)c1)C(=O)Nc1nc(-c2cccc(OC3CC3)c2)cs1
IC50 (BRM; [1]): > 0.01 µM
IC50 (BRG-1; [2]): > 0.01 µM

Compound: C[C@@H]1CN(c2cccc(-c3csc(NC(=O)[C@H](C)NC(=O)c4ccn(S(C)(=O)=O)c4)n3)c2)C[C@H](C)O1
IC50 (BRM; [3]): < 0.01 µM
IC50 (BRG-1; [4]): > 0.01 µM

Compound: COC[C@H](NC(=O)c1ccn(S(C)(=O)=O)c1)C(=O)Nc1nc(-c2cccc(OC(F)(F)F)c2F)cs1
IC50 (BRM; [1]): > 0.01 µM
IC50 (BRG-1; [2]): > 0.1 µM

Compound: C[C@@H]1CN(c2cccc(-c3csc(NC(=O)CNC(=O)c4ccn(C(C)(C)CO)c4)n3)c2)C[C@H](C)O1
IC50 (BRM; [3]): > 0.01 µM
IC50 (BRG-1; [4]): > 0.1 µM

Compound: CS(=O)(=O)n1ccc(C(=O)NCC(=O)Nc2nc(-c3ccc(F)c(OC4CC4)c3)cs2)c1
IC50 (BRM; [1]): > 0.01 µM
IC50 (BRG-1; [2]): > 0.01 µM

Compound: CN(C)CC1CN(c2cccc(-c3csc(NC(=O)CNC(=O)c4ccn(C(C)(C)C)c4)n3)n2)CCO1 (stereo not shown)
IC50 (BRM; [1]): > 0.1 µM
IC50 (BRG-1; [2]): > 0.1 µM

Compound: COCCOc1cccc(-c2csc(NC(=O)CNC(=O)c3ccn(S(C)(=O)=O)c3)n2)c1
IC50 (BRM; [3]): > 0.01 µM
IC50 (BRG-1; [4]): > 0.01 µM

Compound: COC1CC(c2ccc(-c3csc(NC(=O)CNC(=O)c4ccn(S(C)(=O)=O)c4)n3)cc2)C1 (stereo not shown)
IC50 (BRM; [1]): > 0.01 µM
IC50 (BRG-1; [2]): > 0.1 µM

Compound: CO[C@H](C)[C@H](NC(=O)c1ccn(S(C)(=O)=O)c1)C(=O)Nc1nc(-c2cccc(N3C[C@@H](C)O[C@@H](C)C3)n2)cs1
IC50 (BRM; [1]): > 0.01 µM
IC50 (BRG-1; [2]): > 0.01 µM

Other lines, results leading:

IC50 (BRM; [1]): > 0.01 µM
IC50 (BRG-1; [2]): > 0.01 µM
Compound: Cn1ccc(-c2cccc(-c3csc(NC(=O)CNC(=O)c4ccn(C5(C#N)CC5)c4)n3)c2)c1

IC50 (BRM; [1]): < 0.01 µM
IC50 (BRG-1; [2]): < 0.01 µM
Compound: C[C@@H]1CN(c2cccc(-c3csc(NC(=O)CNC(=O)c4ccn(C5(C#N)COC5)c4)n3)c2)C[C@H](C)O1

IC50 (BRM; [3]): > 0.01 µM
IC50 (BRG-1; [4]): > 0.01 µM
Compound: C[C@@H]1CN(c2nccc(-c3csc(NC(=O)CNC(=O)c4ccn(C(C)(C)C)n4)n3)n2)C[C@H](C)O1

IC50 (BRM; [1]): > 0.01 µM
IC50 (BRG-1; [2]): > 0.01 µM
Compound: CN1c2cc(-c3csc(NC(=O)CNC(=O)c4ccn(S(C)(=O)=O)c4)n3)ccc2CC1(C)C

IC50 (BRM; [3]): < 0.01 µM
IC50 (BRG-1; [4]): < 0.01 µM
Compound: C[C@@H]1CN(c2cccc(-c3csc(NC(=O)CNC(=O)c4ccn(C(C)(C)CF)c4)n3)n2)C[C@H](C)O1

IC50 (BRM; [1]): > 0.01 µM
IC50 (BRG-1; [2]): > 0.01 µM
Compound: CC(NC(=O)c1ccn(C(C)(C)C)c1)C(=O)Nc1nc(-c2ccc3ccn(C)c(=O)c3c2)cs1 (stereo not shown)

IC50 (BRM; [3]): > 0.01 µM
IC50 (BRG-1; [4]): > 0.01 µM
Compound: C[C@@H]1CN(c2cccc(-c3csc(NC(=O)CNC(=O)c4ccn(C5(C)COC5)n4)n3)n2)C[C@H](C)O1

IC50 (BRM; [1]): > 0.1 µM
IC50 (BRG-1; [2]): > 0.1 µM
Compound: Cn1ccc2ccc(-c3csc(NC(=O)CNC(=O)c4cn(C5(C#N)CC5)cn4)n3)nc2c1=O

IC50 (BRM; [1]): > 0.1 µM
IC50 (BRG-1; [2]): > 0.1 µM
Compound: CC1(C)CN(c2cccc(-c3csc(NC(=O)CNC(=O)c4ccn(C5(C)COC5)c4)n3)n2)CCC1O (stereo not shown)

IC50 (BRM; [1]): > 0.01 µM
IC50 (BRG-1; [2]): > 0.01 µM
Compound: CN1CCc2ccc(-c3csc(NC(=O)CNC(=O)c4ccn(S(C)(=O)=O)c4)n3)nc21

IC50 (BRM; [1]): > 0.01 µM
IC50 (BRG-1; [2]): > 0.01 µM
Compound: CN1C(=O)CCc2ccc(-c3csc(NC(=O)CNC(=O)c4ccn(S(C)(=O)=O)c4)n3)cc21

IC50 (BRM; [1]): < 0.01 µM
IC50 (BRG-1; [2]): > 0.01 µM
Compound: COC[C@H](NC(=O)c1ccn(C2(C#N)CC2)c1)C(=O)Nc1nc(-c2cccc(N3C[C@@H](C)O[C@@H](C)C3)c2)cs1

IC50 (BRM; [3]): < 0.01 µM
IC50 (BRG-1; [4]): < 0.01 µM
Compound: Cc1nccc(-c2cccc(-c3csc(NC(=O)CNC(=O)c4ccn(C(C)(C)C)n4)n3)c2)n1

IC50 (BRM; [3]): > 0.01 µM
IC50 (BRG-1; [4]): > 0.1 µM
Compound: C[C@@H]1CN(c2cccc(-c3csc(NC(=O)CNC(=O)c4ccn(C5(C)CC5)c4)n3)n2)C[C@H](C)O1 [Compound 333]

IC50 (BRM; [3]): > 0.1 µM
IC50 (BRG-1; [4]): > 0.1 µM
Compound: COC[C@H](NC(=O)c1ccn(C2(C)COC2)c1)C(=O)Nc1nc(-c2ccc3ccn(C)c(=O)c3c2)cs1 [Compound 453]
